Here are results for four substances from article PMC9154761, “Development of Praziquantel sulphonamide derivatives as antischistosomal drugs” (Journal of Enzyme Inhibition and Medicinal Chemistry, 2022).

The chains behind the UniProt entries cited, without tags or fusion partners. Where a name states a change or a piece, a line headed by the entry shows the natural chain unless it says otherwise.
UniProt P00915: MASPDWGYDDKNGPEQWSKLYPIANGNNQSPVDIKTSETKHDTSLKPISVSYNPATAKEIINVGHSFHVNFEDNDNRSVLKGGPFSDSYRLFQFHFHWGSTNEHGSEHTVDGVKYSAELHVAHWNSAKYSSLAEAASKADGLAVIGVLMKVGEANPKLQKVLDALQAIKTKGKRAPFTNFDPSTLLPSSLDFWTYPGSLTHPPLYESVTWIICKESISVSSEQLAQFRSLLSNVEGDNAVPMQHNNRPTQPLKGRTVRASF

For the first test, the target named is T1, hCA II (Homo sapiens, UniProt P00918).
T1 construct: made in house
As to the kind of experiment: stopped flow CO2 hydrase assay, hCA II. The test is classed as biochemical. The conditions noted are these: mean from three different assays, read-out: Ki hCAII.
On to “3–(3-(3–(4-Oxo-1,3,4,6,7,11b-hexahydro-2H-pyrazino[2,1-a]isoquinoline-2-carbonyl) phenyl)ureido)benzenesulfonamide [Compound 31b]”, for which the Ki (usually the equilibrium dissociation constant of an inhibitor or competing ligand from its target) was 41.8 ± 4.4 nM.
The same measure, in the same setting: to “3–(3-(4–(4-Oxo-1,3,4,6,7,11b-hexahydro-2H-pyrazino[2,1-a]isoquinoline-2-carbonyl) phenyl)ureido)benzenesulfonamide [Compound 31d]” belongs 122 ± 12.1 nM; to “4–(3-(3–(4-Oxo-1,3,4,6,7,11b-hexahydro-2H-pyrazino[2,1-a]isoquinoline-2-carbonyl) phenyl)ureido)benzenesulfonamide [Compound 31a]”, 6.7 ± 0.6 nM.
In the case of “4–(3-(4–(4-Oxo-1,3,4,6,7,11b-hexahydro-2H-pyrazino[2,1-a]isoquinoline-2-carbonyl) phenyl)ureido)benzenesulfonamide [Compound 31c]”, the Ki is 13.7 ± 1.2 nM.

The next test deals with T2, hCA I (Homo sapiens, UniProt P00915).
T2 construct: made in house
As to the kind of experiment: stopped flow CO2 hydrase assay, hCA I. Format: biochemical. The conditions noted are these: mean from three different assays.
Substance “3–(3-(3–(4-Oxo-1,3,4,6,7,11b-hexahydro-2H-pyrazino[2,1-a]isoquinoline-2-carbonyl) phenyl)ureido)benzenesulfonamide [Compound 31b]” returned an inhibition constant Ki of 95.2 ± 10.3 nM.
Same read-out and setting: as for “3–(3-(4–(4-Oxo-1,3,4,6,7,11b-hexahydro-2H-pyrazino[2,1-a]isoquinoline-2-carbonyl) phenyl)ureido)benzenesulfonamide [Compound 31d]”, the figure is 465 ± 30.1 nM; as for “4–(3-(3–(4-Oxo-1,3,4,6,7,11b-hexahydro-2H-pyrazino[2,1-a]isoquinoline-2-carbonyl) phenyl)ureido)benzenesulfonamide [Compound 31a]”, 36.6 ± 2.7 nM.
On the same count and under the same terms, as for “4–(3-(4–(4-Oxo-1,3,4,6,7,11b-hexahydro-2H-pyrazino[2,1-a]isoquinoline-2-carbonyl) phenyl)ureido)benzenesulfonamide [Compound 31c]”, the figure is 81.5 ± 5.5 nM.
